Data published in ChEMBL document CHEMBL4321856.

How the values were obtained:
[1] = Selectivity index, ratio of Ki for displacement of [3H]DPDPE from rat DOR expressed in CHO cell membranes incubated for 30 mins by liquid scintillation counting to Ki for displacement of [3H]U69593 from human KOR expressed in CHO cell membranes incubated for 30 mins by liquid scintillation counting
[2] = Selectivity index, ratio of EC50 for agonist activity at rat DOR expressed in CHO cell membranes assessed as stimulation of [35S]GTPgammaS binding by liquid scintillation counting to EC50 for agonist activity at human KOR expressed in CHO cell membranes assessed as stimulation of [35S]GTPgammaS …

Work on `COc1ccc2c3c1O[C@H]1[C@@]4(OC)CC[C@@]5(C[C@@H]4c4ccc(N6CCN(C(C)=O)CC6)cc4)[C@@H](C2)N(CC2CC2)CC[C@]315` yielded a Ratio Ki [1] of 0.2.
`CNc1ccc([C@H]2C[C@@]34CC[C@]2(OC)[C@@H]2Oc5c(OC)ccc6c5[C@@]23CCN(CC2CC2)[C@@H]4C6)cc1` gave a Ratio Ki [1] of 4.7.
For `COc1ccc2c3c1O[C@H]1[C@@]4(OC)CC[C@@]5(C[C@@H]4c4ccc(N6CCN(S(=O)(=O)c7ccc(C)cc7)CC6)cc4)[C@@H](C2)N(CC2CC2)CC[C@]315`, the Ratio Ki [1] was greater than 3.2.
With `COc1ccc2c3c1O[C@H]1[C@@]4(OC)CC[C@@]5(C[C@@H]4c4ccc(NCCCN(C)C)cc4)[C@@H](C2)N(CC2CC2)CC[C@]315` the Ratio Ki [1] was 20.5.
Work on `COc1ccc2c3c1O[C@H]1[C@@]4(OC)CC[C@@]5(C[C@@H]4c4ccc(NC(C)=O)cc4)[C@@H](C2)N(CC2CC2)CC[C@]315` yielded a Ratio Ki [1] of 27.7.
For `COc1ccc2c3c1O[C@H]1[C@@]4(OC)CC[C@@]5(C[C@@H]4c4ccc(NCC6CC6)cc4)[C@@H](C2)N(CC2CC2)CC[C@]315`, the Ratio Ki [1] was 4.5.
Work on `CCOC(=O)CCNc1ccc([C@H]2C[C@@]34CC[C@]2(OC)[C@@H]2Oc5c(OC)ccc6c5[C@@]23CCN(CC2CC2)[C@@H]4C6)cc1` yielded a Ratio Ki [1] of 0.9.
In the case of `COc1ccc2c3c1O[C@H]1[C@@]4(OC)CC[C@@]5(C[C@@H]4c4ccc(N6CCNCC6)cc4)[C@@H](C2)N(CC2CC2)CC[C@]315`, the Ratio Ki [1] is reported as 10.3.
Molecule `COc1ccc2c3c1O[C@H]1[C@@]4(OC)CC[C@@]5(C[C@@H]4c4ccc(NCCN(C)C)cc4)[C@@H](C2)N(CC2CC2)CC[C@]315` has a Ratio Ki [1] of 10.6.
With `COc1ccc2c3c1O[C@H]1[C@@]4(OC)CC[C@@]5(C[C@@H]4c4ccc(NCC(N)=O)cc4)[C@@H](C2)N(CC2CC2)CC[C@]315` the Ratio Ki [1] was 3.6.
For `COc1ccc2c3c1O[C@H]1[C@@]4(OC)CC[C@@]5(C[C@@H]4c4ccc(N6CCCC6)cc4)[C@@H](C2)N(CC2CC2)CC[C@]315`, the Ratio Ki [1] was 3.1.
For `CCCNc1ccc([C@H]2C[C@@]34CC[C@]2(OC)[C@@H]2Oc5c(OC)ccc6c5[C@@]23CCN(CC2CC2)[C@@H]4C6)cc1`, the Ratio Ki [1] was 6.8.
Molecule `COc1ccc2c3c1O[C@H]1[C@@]4(OC)CC[C@@]5(C[C@@H]4c4ccc(N6CCN(CC7CC7)CC6)cc4)[C@@H](C2)N(CC2CC2)CC[C@]315` has a Ratio Ki [1] of 3.6.
`CCNc1ccc([C@H]2C[C@@]34CC[C@]2(OC)[C@@H]2Oc5c(OC)ccc6c5[C@@]23CCN(CC2CC2)[C@@H]4C6)cc1` showed a Ratio Ki [1] of 2.5.
`COc1ccc2c3c1O[C@H]1[C@@]4(OC)CC[C@@]5(C[C@@H]4c4ccc(NC(=O)Cc6ccccc6)cc4)[C@@H](C2)N(CC2CC2)CC[C@]315` showed a Ratio Ki [1] of 6.2.
With `COc1ccc2c3c1O[C@H]1[C@@]4(OC)CC[C@@]5(C[C@@H]4c4ccc(N6CCCCC6)cc4)[C@@H](C2)N(CC2CC2)CC[C@]315` the Ratio Ki [1] was 25.5.
For `COc1ccc2c3c1O[C@H]1[C@@]4(OC)CC[C@@]5(C[C@@H]4c4ccc(NC=O)cc4)[C@@H](C2)N(CC2CC2)CC[C@]315`, the Ratio Ki [1] was 30.8.
For `COc1ccc2c3c1O[C@H]1[C@@]4(OC)CC[C@@]5(C[C@@H]4c4ccc(/N=N/c6ccc(O)cc6)cc4)[C@@H](C2)N(CC2CC2)CC[C@]315`, the Ratio Ki [1] was greater than 3.1.
For `COc1ccc2c3c1O[C@H]1[C@@]4(OC)CC[C@@]5(C[C@@H]4c4ccc(N)cc4)[C@@H](C2)N(CC2CC2)CC[C@]315`, the Ratio Ki [1] was 5.2 and the Ratio EC50 [2] was 1.87.
Work on `COc1ccc2c3c1O[C@H]1[C@@]4(OC)CC[C@@]5(C[C@@H]4c4ccc(N6CCN(C(=O)c7ccccc7)CC6)cc4)[C@@H](C2)N(CC2CC2)CC[C@]315` yielded a Ratio Ki [1] of 0.5.
Molecule `COc1ccc2c3c1O[C@H]1[C@@]4(OC)CC[C@@]5(C[C@@H]4c4ccc(NC(=O)c6ccccc6)cc4)[C@@H](C2)N(CC2CC2)CC[C@]315` has a Ratio Ki [1] of 284 and a Ratio EC50 [2] greater than 300.
